Our source for the B-score values is PubChem BioAssay AID488977 (Johns Hopkins Ion Channel Center, 2010).

Chains of the proteins cited; added tags and fusions are not shown. Lines headed by an entry give the natural chain unless they say otherwise; changes in a name come on top.
UniProt Q9GZV3: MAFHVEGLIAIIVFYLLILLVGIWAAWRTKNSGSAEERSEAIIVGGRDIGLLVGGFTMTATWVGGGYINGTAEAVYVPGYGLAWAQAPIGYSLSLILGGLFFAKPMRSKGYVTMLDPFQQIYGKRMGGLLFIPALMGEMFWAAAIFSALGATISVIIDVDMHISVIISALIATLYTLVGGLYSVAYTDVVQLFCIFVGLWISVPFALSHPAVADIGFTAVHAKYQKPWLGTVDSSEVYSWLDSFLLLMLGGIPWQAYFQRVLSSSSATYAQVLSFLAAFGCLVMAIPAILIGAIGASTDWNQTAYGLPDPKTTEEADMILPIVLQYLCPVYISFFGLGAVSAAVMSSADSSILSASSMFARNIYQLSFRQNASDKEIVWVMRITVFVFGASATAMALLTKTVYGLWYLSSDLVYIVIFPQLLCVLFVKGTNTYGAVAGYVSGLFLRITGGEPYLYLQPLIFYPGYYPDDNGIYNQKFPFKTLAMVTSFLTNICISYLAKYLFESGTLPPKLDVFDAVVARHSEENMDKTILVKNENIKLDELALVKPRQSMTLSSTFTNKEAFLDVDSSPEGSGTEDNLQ

This is a selection; strong and weak results do not stand in their true shares. Calls of active or inactive are those of the source.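 The calls were made as follows: active = initial fluorescence not abnormally high and integrated response B-score, plate-corrected, over 3 SD above library mean; inactive = the rest.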

In the assay the target is High affinity choline transporter 1 (Homo sapiens) (UniProt Q9GZV3). As to the kind of experiment: CHT positive allosteric modulators, primary screen, cell-based, membrane potential dye, choline EC20 (AID 488977). The conditions noted are these: CHT-expressing cells, at 10 µM, hits give high values, LV-AA mutant CHT in HEK293 cells.
Turning to `NC(=O)c1cc([N+](=O)[O-])cc([N+](=O)[O-])c1N`, the B-score was inactive: 0.
For the molecule `CCc1nc2c(n1)c1c(non1O)c1c2no[n+]1[O-]`, the B-score is inactive: 0.
Next, `CC(Cc1ccc(O)cc1)NCC(O)c1cc(O)cc(O)c1` (stereo not drawn): inactive: 0.
